Assay outcomes from PubChem BioAssay.
Compounds with a hit are over-represented: about 3.7% of the library has one in this group of screens.
ClpP mod: qHTS Assay for Activators of ClpP; ATP-dependent Clp protease proteolytic subunit (Bacillus subtilis (strain 168)), P80244; purified B. subtilis ClpP, FRET peptide cleavage, 20 min; Potency, µM (top dose mostly 57.5 µM); actives 1.9% (n = 340,000); AID 651965, 2013; active = well fitted falling curve with a large enough effect; inconclusive = small, poorly fitted or top-dose-only effect; inactive = no such curve, though single readings can be large or run the other way; also: the source files actives as falling curves though it sought activators and does not explain the sign; nearly all actives have a fitted effect of over 65% in size
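FRET quenching reversal measured ClpP activation: 10 microg/mL B. subtilis ClpP at pH 8 with the FRET-FV decapeptide, read at 430 nm after 320 nm excitation. The 20-min minus 0-min signal was scaled between DMSO/no-enzyme wells and ADEP (5.8 microM final).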
A549 viability: counter-screen for Nrf2 inhibitors: cytotoxicity in A549 cells | A549 ARE-Fluc cells, CellTiter-Fluor viability, 18-24 h | Potency, µM (titrated, usually from 46 µM), most hits filed as inhibitors | actives 0.16% (n = 390,000)
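A549 ARE_Fluc cells in 5% FBS OPTI-MEM were exposed to compounds in concentration-response for 18-24 h at 37 deg C. Viability was read by CellTiter-Fluor fluorescence (Ex 405/Em 525) after 30 min, before the luciferase read.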
TCR act: activates T cell receptor signaling | primary human leukocytes, anti-CD3, IL-2 HTRF, 48 h | Potency, µM (series often up to 9.22 µM), hits mostly activators | 330,000 tested, under 10 active
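Using a-CD3 beads without co-stimulation, primary human leukocytes were exposed to compounds for 48 hr. An HTRF IL-2 kit measured the cytokine, with europium-to-d2 energy transfer producing emission at 665nm upon 320nm excitation.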
Nrf2 inh: Nrf2 pathway inhibition. A549 ARE-Fluc reporter, luciferase luminescence, 18-24 h. Potency, µM (titrated, usually from 46 µM), most hits filed as inhibitors. AID 504444. actives 2.1% (n = 360,000); also: nearly all actives have a fitted effect of over 60% in size
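Nrf2 function is reported as luminescence of an ARE-controlled luciferase in A549 cells. Compounds were tested at several concentrations, and a CellTiter-Fluor read on the same wells flagged cytotoxicity.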
miR-21 FLuc: miR-21 reporter, rising signal | HeLa miR-21 FLuc reporter, luciferase, 48 h | Potency, µM (top dose mostly 38.3 µM) | 340,000 tested, under 10 active | AID 2288; active = well fitted rising curve with a large enough effect; inconclusive = small, poorly fitted or top-dose-only effect; inactive = no such curve, though single readings can be large or run the other way;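 further: miR-21 action dims this reporter so a rising signal means less miR-21 action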
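HeLa cells endogenously expressing miR-21, stably carrying CMV-driven firefly luciferase with a downstream miR-21 binding site, 2000 cells/well. Titrations up to approximately 40 uM, 48 hours; luciferase luminescence read.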
Nrf2 ARE act: activates Nrf2 signaling | AREc32 ARE-luciferase reporter (MCF7-derived line), luminescence, 24 h | actives 0.31% (n = 410,000) | Potency, µM (highest dose often 46.1 µM), usual class: activators | AID 624171; also: nearly all actives have a fitted effect of over 65% in size
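Steps: seed AREc32_Fluc cells (1000/well, 5% FBS OPTI-MEM); incubate overnight at 37 deg C; add 23 nL compound; incubate 24 hr; add Steady-Glo; hold 30 min RT; read luminescence.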
Each line names hits and unclear results; the compound was inactive in the other large screens. Unless noted, calls follow the shape of the dose curve; as a rule, active = well fitted curve in the direction sought with a large enough effect; inconclusive = small, poorly fitted or top-dose-only effect, or another doubt; inactive = no such curve, though single readings can be large; an effect the other way counts as inactive or inconclusive.

Cc1ccc(S(=O)(=O)c2c(N)n(CCN3CCOCC3)c3nc4ccccc4nc23)cc1C	ClpP mod 28µM
Cc1ccc(S(=O)(=O)c2c(N)n(Cc3ccco3)c3nc4ccccc4nc23)cc1C	ClpP mod 11µM, A549 viability inconclusive, Nrf2 inh inconclusive
Cc1ccc(S(=O)(=O)c2cc3c(=O)n4cccc(C)c4nc3n(Cc3ccco3)c2=N)cc1C	none (no result: ClpP mod, A549 viability, TCR act, Nrf2 inh, Nrf2 ARE act)
Nc1c(S(=O)(=O)c2ccccc2)c2nc3ccccc3nc2n1Cc1ccco1	ClpP mod 16µM, A549 viability inconclusive, Nrf2 inh 26µM
Cc1oc(-c2cccc(Cl)c2)nc1CN1CCCC(C(=O)N2CCN(c3ccc(F)cc3)CC2)C1 (configuration not stated)	none (no result: TCR act)
Cc1ccc(CN2C(=O)CN(C3CCC(C)CC3)C(=O)C2c2ccc(F)cc2)cc1 (configuration not stated)	none (no result: TCR act, Nrf2 inh)
COc1cccc(CCC2C(=O)CCCC2=O)c1	none (no result: miR-21 FLuc)
COC(=O)c1cn(NC(=O)c2cc([N+](=O)[O-])ccc2F)c(=O)c2ccccc12	Nrf2 inh 5.2µM (no result: ClpP mod)
COC(=O)c1cn(NC(=O)C2CCC(C)CC2)c(=O)c2ccccc12 (configuration not stated)	none
C=CCN=C1NN=C(c2cc(C)n(CCOC)c2C)CS1	Nrf2 inh inconclusive
Cc1cc(C2=NNC(=NC3CC3)SC2)c(C)n1-c1ccccc1	Nrf2 inh 6.5µM, miR-21 FLuc inconclusive
COCCn1c(C)cc(C2=NNC(=NC3CC3)SC2)c1C	Nrf2 inh 0.58µM, miR-21 FLuc inconclusive
O=C(CN1C(=O)COc2ccc(S(=O)(=O)N3CCCC3)cc21)NCCc1ccc(Cl)cc1	none (no result: TCR act, Nrf2 inh)
COC(=O)N1CCCc2cc(S(=O)(=O)N3CCN(c4ccccc4)CC3)ccc21	none (no result: TCR act)
Cc1ccccc1OCc1nnc(SCC(=O)Nc2ccc3c(c2)oc2ccccc23)n1C	ClpP mod 14µM (no result: TCR act, Nrf2 inh)
COc1ccc(C(=O)COC(=O)c2ccc(Cl)nc2)cc1OC	ClpP mod 22µM (no result: miR-21 FLuc)
O=C(Cc1ccc(Cl)cc1Cl)Nc1ccncc1	Nrf2 inh 16µM
O=C(Cc1ccc(Cl)cc1Cl)Nc1ccncc1Cl	Nrf2 inh 9.2µM
S=C(NCc1ccc(Cl)cc1)Nc1ccncc1	Nrf2 inh 13µM
O=C(Cc1c(Cl)cccc1Cl)Nc1ccncc1	none
S=C(NCc1ccc(Cl)cc1)Nc1ccccc1	none (no result: ClpP mod)
COc1cccc(-c2cnc3c(NC=O)cc(-c4cccc(C(=O)N(C)C)c4)cn23)c1	none (no result: A549 viability, TCR act, Nrf2 inh, miR-21 FLuc)
COc1cc(/C=C(\C#N)c2nc3ccc(C)cc3[nH]2)cc([N+](=O)[O-])c1O	A549 viability 21µM, Nrf2 inh inconclusive (no result: ClpP mod)
COc1ccc2nccc(/C=C/c3ccc(N(C)C)cc3)c2c1	none (no result: A549 viability, TCR act, Nrf2 inh, miR-21 FLuc, Nrf2 ARE act)
Cn1nc(C(F)(F)F)c(C#N)c1N1CCN(c2ccc(F)cc2)CC1	ClpP mod 14µM, Nrf2 inh 12µM
CCCCc1nnc(SCc2cc(=O)c3cc(C(=O)OCC)ccc3[nH]2)n1C	none (no result: TCR act, Nrf2 inh)
N#C/C(=C\C1CC=CCC1)c1nc2ccccc2[nH]1 (configuration not stated)	ClpP mod 32µM, A549 viability inconclusive, Nrf2 inh inconclusive
CCOC(=O)c1cccc(NC(=O)c2ccc3nc(CCc4ccccc4)oc3c2)c1	none (no result: TCR act, Nrf2 inh)
COc1ccc(-c2cc(C)no2)cc1S(=O)(=O)N1CCN(c2ccc(C(C)=O)cc2)CC1	Nrf2 inh 13µM (no result: TCR act)
CCCCCCCCCCCCCCCC[N+](C)(C)CCN(Cc1ccc(OC)cc1)c1ncccn1	A549 viability inconclusive, Nrf2 inh 21µM (no result: miR-21 FLuc)
COc1ccc(CC2(CO)CCN(CC3=Cc4cc(Cl)ccc4OC3)CC2)cc1	Nrf2 inh 13µM (no result: ClpP mod)
Cc1cccc(-c2nc3scc(CCNS(=O)(=O)c4ccc(F)c(C(F)(F)F)c4)n3n2)c1	none (no result: TCR act, Nrf2 inh)
COCCNC(=O)C1(C)CCN(C(=O)/C=C/c2ccccc2)C1 (configuration not stated)	none (no result: A549 viability, TCR act, Nrf2 inh, miR-21 FLuc)
CCOc1ccc(CNC(=O)CCS(=O)(=O)Cc2ccc(C)cc2)cc1OC	ClpP mod 25µM
CCOc1ccc(CNC(=O)CCS(=O)(=O)Cc2ccccc2C)cc1OC	none
COc1ccccc1OCCn1c(C(C)Oc2ccccc2)nc2ccccc21 (configuration not stated)	A549 viability inconclusive, Nrf2 inh inconclusive (no result: TCR act)
O=C(O)c1ccc(N/N=C/C(Br)=C/c2ccccc2)cc1	A549 viability inconclusive, Nrf2 inh inconclusive, Nrf2 ARE act inconclusive
O=C(N/N=C/C(Br)=C/c1ccccc1)C1CC1	Nrf2 inh inconclusive, Nrf2 ARE act 20µM
Cc1occc1C(=O)N/N=C/C(Br)=C\c1ccccc1	Nrf2 inh inconclusive, Nrf2 ARE act 14µM (no result: ClpP mod)
Cc1occc1C(=O)N/N=C/C=C/c1ccccc1	none
O=C(N/N=C/C(Br)=C/c1ccccc1)C(O)c1ccccc1 (configuration not stated)	Nrf2 inh inconclusive, Nrf2 ARE act 11µM (no result: ClpP mod)
CC1(C)CC(Nc2ccc(Nc3ccccc3)cc2)CC(C)(C)N1	Nrf2 ARE act inconclusive
Cc1c(C)n(C)c2ccc(C(=O)NCCN3CCOCC3)cc12	none
CC1CCN(c2nc3nonc3nc2Nc2ccc(F)cc2)CC1	A549 viability inconclusive, Nrf2 inh 9.2µM (no result: ClpP mod)
COc1ccc(OC)c(Nc2nc3nonc3nc2N2CCCC(C)C2)c1 (configuration not stated)	none (no result: ClpP mod)
COc1ccc(Nc2nc3nonc3nc2N2CCCCC2)cc1	Nrf2 inh 26µM (no result: ClpP mod)
CNc1nc(N/N=C/c2cc3c(cc2[N+](=O)[O-])OCO3)nc(Nc2ccccc2)n1	A549 viability inconclusive, Nrf2 inh 18µM, miR-21 FLuc inconclusive
CCCCCCCCCC[n+]1ccc(/C=C/c2c(C)[nH]c3ccccc23)c2ccccc21	none (no result: A549 viability, TCR act, Nrf2 inh, miR-21 FLuc, Nrf2 ARE act)
COc1ccc(C2c3c(n(C)c4ccccc34)C(=O)N2CC(=O)Nc2ccc(C)c(Cl)c2)cc1 (configuration not stated)	none (no result: TCR act)
COc1ccc(C2c3c(n(C)c4ccccc34)C(=O)N2CC(=O)Nc2cccc(Cl)c2)cc1 (configuration not stated)	ClpP mod 16µM (no result: TCR act)
COc1ccc(C2c3c(n(C)c4ccccc34)C(=O)N2CC(=O)Nc2ccc(C)cc2Cl)cc1 (configuration not stated)	ClpP mod 32µM (no result: TCR act)
COC(=O)c1ccccc1S(=O)(=O)NC(=O)c1ccccc1	ClpP mod 20µM (no result: Nrf2 inh)
Cc1cc(N2CCCN(C)CC2)nc2cc(Cl)ccc12	ClpP mod 32µM, A549 viability inconclusive
O=[N+]([O-])c1ccc(Sc2cccc[n+]2[O-])c2nonc12	A549 viability 18µM, Nrf2 inh inconclusive, miR-21 FLuc inconclusive
